Assay: Example 2: mouse model of CAR T-cell therapy induced CRS
Settings: IP, BID for 7 days, start 5 hours prior to CAR-T cell transfer

## CC#CC[C@H](C)[C@H](O)/C=C/[C@@H]1[C@H]2c3cccc(CCCC(=O)[O-])c3O[C@H]2C[C@H]1O.[Na+] [CTO1681, (+)-[1R, 2R, 3aS, 8bS]-2,3,3a,8b-tetrahydro-2-hydroxy-1-[(E)-(3S,4S)-3-hydroxy-4-methyl-1-octen-6-ynyl)-1Hcyclopenta[b]benzofuran-5-butanoic acid, monosodium salt]
  Undesired cytokine production vs control group: lower undesired cytokine production
